# Apparent affinities of Ab-14 variants for a coronavirus HR2 peptide

All variants were tested on one target, the spike HR2 peptide PDVDLGDISGINAS (SARS-CoV-2).

Each scFv is VH, a (GGGGS)3 linker, VL, as in the parent Ab-14, and differs from it in the CDRs of the heavy chain only.
VH: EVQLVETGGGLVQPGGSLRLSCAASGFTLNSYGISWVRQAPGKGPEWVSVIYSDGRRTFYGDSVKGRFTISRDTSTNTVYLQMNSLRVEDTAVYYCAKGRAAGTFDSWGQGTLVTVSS
VL: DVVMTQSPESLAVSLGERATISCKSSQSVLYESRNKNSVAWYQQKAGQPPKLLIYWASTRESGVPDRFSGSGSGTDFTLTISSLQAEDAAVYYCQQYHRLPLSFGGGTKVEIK

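The starting antibody came from a phage panning campaign against this peptide. This is the validation round: designs drawn from the data on random variants, tested in the same kind of assay. Group labels follow the data file (Ctrl: baseline library sampled from a position-specific scoring matrix, with some repeated check sequences; Rand: our label for a block that the file lists under HC and that is probably the random mutants of the ten best first-round binders; En: ensemble of fine-tuned language models; GP: Gaussian process model; GPLM: also part of the Gaussian process libraries; HC: hill climbing; Gen: genetic algorithm; Gibbs: Gibbs sampling; a sequence that several methods proposed may carry one label only). Affinity was read by AlphaSeq, a pooled yeast mating assay with surface-displayed partners. Binding brings cells together so that they mate, and sequencing counts the barcode pairs among the diploids. A regression on co-assayed BCL2-family reference pairs converts the normalised counts of each replicate to an apparent Kd. There are six technical replicates.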

The parent's heavy chain CDRs are GFTLNSYGIS, VIYSDGRRTFYGDSVK, GRAAGTFDS; each variant's own CDRs replace them letter for letter. Scale: log10 of Kd in nM, estimated from mating counts; low values are strong binders. Replicates are averaged; those with no signal do not enter the mean. An entry "nd" has no value in the source: the pair was not observed among the diploids in any replicate. This suggests poor binding but is not conclusive. The parent sequence was in this pool as ten entries: three were never detected, three once, and four in most replicates, with averages from 0.34 to 2.37. Values of this round are not directly comparable with the first-round values of the same sequences. Nonspecific signal, from three strains lacking the peptide, appeared in 1% of pairings of all heavy chain designs, centred on 2.08 (5% of these signals below 0.84); values are not corrected for it. The control count says in how many pairings with the empty strains this scFv gave a signal. In the paper, a design with two or fewer of six values counts as a poor binder.

Read-out nd (0 of 6 replicates; controls 0 of 18), from GKDINEYGVS / VIYADGKRNAYQNSVK / GKWAGAFVD [En_Gibbs].
Read-out 2.41 (1 of 6 replicates; controls 0 of 18), from GFDVDEYGIS / VIYADGFRTSYTADVK / GSQVGNGLV [En_Gibbs].
Read-out nd (0 of 6 replicates; controls 0 of 18), from KFELNSYGIS / VIYADGRRTFYGDSVK / GKAAGTFDS [GP_Gen].
Read-out 1.56 (4 of 6 replicates; controls 0 of 18), from GFVLNDYGIS / VIYSDGRRTFYIDSVK / GRLAGTFDS [GP_HC].
Read-out nd (0 of 6 replicates; controls 0 of 18), from GFTLNSYGIS / VIYSDGRRTFYGDSVK / GRAALTFDY [Ctrl].
Read-out nd (0 of 6 replicates; controls 0 of 18), from GFDIDEYGIS / VIYADGVRTAVDPSFK / GQMAGFFDE [En_Gibbs].
Read-out -0.04 (6 of 6 replicates; controls 0 of 18), from GFDLNEFGVS / VIYADGYRASYADKVK / GFNFGQLIV [En_Gibbs].
Read-out nd (0 of 6 replicates; controls 0 of 18), from GFTLNSYGIS / AIYSDGRRTYYSDSVK / GQSAGTIDW [Ctrl].
Read-out -0.34 (6 of 6 replicates; controls 1 of 18), from GFDLNEYGIS / VIYADGRRTAYADSVK / GKAAGTFDS [En_HC].
Read-out nd (0 of 6 replicates; controls 0 of 18), from GFTLNSYGIS / VIYSDGRRTFYKDSVK / GQTAGTFDT [GPLM_Gen].
Read-out nd (0 of 6 replicates; controls 0 of 18), from GFTLNSYGIS / VIYSDGRRTFYSDAVK / GWAAGLFIS [Ctrl].
Read-out -0.69 (6 of 6 replicates; controls 0 of 18), from GFDLDEYGIS / VIYADGRRTFYADSVK / GQNAGTFDT [En_HC].
Read-out 0.21 (6 of 6 replicates; controls 0 of 18), from GFDLNEYGIS / VIYADGMRTAYVDDVK / GENAGTFDV [En_Gen].
Read-out 0.69 (6 of 6 replicates; controls 2 of 18), from GFTLNEYGIS / VIYSDGRRTFYTDAVK / GKFAGTFDS [GP_HC].
Read-out 2.08 (1 of 6 replicates; controls 0 of 18), from GFTLFSYGIS / VIYADGRRTFYQDSVK / GRAAGTTDS [Ctrl].
Read-out nd (0 of 6 replicates; controls 0 of 18), from GDDLAEYGVS / VIYADGKRTEYSDHVK / GENGGFFDL [En_Gibbs].
Read-out nd (0 of 6 replicates; controls 0 of 18), from GFQLNEYGIS / VIYSDGRRTFYGDQVK / GRNAGTFDS [GP_Gen].
Read-out 0.01 (6 of 6 replicates; controls 1 of 18), from GFTLNEYGIS / VIYSDGVRTFYGDSVK / GRTAGTFDS [GPLM_Gen].
Read-out nd (0 of 6 replicates; controls 0 of 18), from GFNLNSYGIS / VIYSDGRRTFYGDMVK / GQAAGTFDS [GP_Gibbs].
Read-out -0.31 (6 of 6 replicates; controls 0 of 18), from GFDLNEYGIS / VIYADGRRTAYADKVK / GNVAGTFDQ [En_Gen].
Read-out 0.63 (6 of 6 replicates; controls 0 of 18), from GFTINSYGIS / VIYSDGRRTFYSDSVK / GDAAGTFDS [GPLM_HC].
Read-out -0.02 (6 of 6 replicates; controls 0 of 18), from GFSLNEYGIS / VIYADGRRTFYGDSVK / GRTAGTFDS [GPLM_Gibbs].
Read-out nd (0 of 6 replicates; controls 0 of 18), from FFKLEDYGIS / VIYADGKRKAYVQNVK / GQIAGTFDV [En_Gibbs].
Read-out 0.73 (6 of 6 replicates; controls 1 of 18), from HFDLNSYGIS / VIYSDGRRTFYGDSVK / GKTAGTFDS [GP_Gen].
Read-out 0.43 (6 of 6 replicates; controls 0 of 18), from GFSLNEYGIS / VIYSDGRRTFYADMVK / GRTAGTFDS [GP_Gen].
Read-out -0.48 (6 of 6 replicates; controls 0 of 18), from GFDLNEYGIS / VIYADGRRTAYTDDVK / GEVAGTFDL [En_HC].
Read-out -0.14 (6 of 6 replicates; controls 1 of 18), from GFDLNSYGIS / VIYSDGKRTFYADSVK / GKAAGTFDS [GPLM_Gibbs].
Read-out -0.42 (6 of 6 replicates; controls 0 of 18), from GFNLDEYGIS / VIYADGMRTAYADSVK / GNVAGTFDT [En_Gen].
Read-out -0.40 (6 of 6 replicates; controls 1 of 18), from GFDLNEYGIS / VIYADGKRTAYADSVK / GEAAGTFDQ [En_HC].
Read-out 0.39 (6 of 6 replicates; controls 0 of 18), from GFGLNSYGIS / VIYSDGRRTFYHDSVK / GRTAGTFDT [GP_Gibbs].
Read-out -0.69 (6 of 6 replicates; controls 0 of 18), from GFNLDEYGIS / VIYADGQRTFYADSVK / GEHAGTFDT [En_HC].
Read-out 1.68 (1 of 6 replicates; controls 0 of 18), from GYDLQDYGIS / VIYADGRRTAFSHKVK / GQIAGTFNF [En_Gibbs].
Read-out nd (0 of 6 replicates; controls 0 of 18), from GPSLDEFGIS / VIYADGMRTAYTDSVK / GLFAATFVD [En_Gibbs].
Read-out -0.62 (6 of 6 replicates; controls 0 of 18), from GFDLNEYGIS / VIYADGRRTAYVDSVK / GEAAGTFDQ [En_HC].
Read-out -0.64 (6 of 6 replicates; controls 0 of 18), from GFDLDEYGIS / VIYADGLRTAYADSVK / GQNAGTFDV [En_Gen].
Read-out 1.16 (6 of 6 replicates; controls 1 of 18), from GFTLESYGIS / VIYSDGRRTFYGDSVK / GRQAGTFDT [GPLM_Gen].
Read-out 0.99 (6 of 6 replicates; controls 0 of 18), from GFELNSYGIS / VIYSDGRRTFYGDSVK / GVTAGTFDK [GP_Gibbs].
Read-out 1.21 (6 of 6 replicates; controls 0 of 18), from GFEIQEYGIS / VIYADGRRTAYAENVK / GTWAGTLST [En_Gibbs].
Read-out nd (0 of 6 replicates; controls 0 of 18), from GFTLNDYGIS / VIYSDGRRTFYGDSVK / GRAADTFIS [Rand].
Read-out 1.19 (6 of 6 replicates; controls 1 of 18), from GFTLNEYGIS / VIYSDGRRTFYTDTVK / GRTAGTFDS [Rand].
Read-out -0.29 (6 of 6 replicates; controls 0 of 18), from GFDLNEYGIS / VIYADGVRTFYADSVK / GNQAGTFDS [En_HC].
Read-out -0.07 (6 of 6 replicates; controls 0 of 18), from GFDLNEYGIS / VIYADGRRTFYADSVK / GQHAGTFTL [En_HC].
Read-out 1.13 (6 of 6 replicates; controls 0 of 18), from GFDLNSYGIS / VIYSDGRRTFYIDSVK / GRAAGTFNS [GP_HC].
Read-out 0.80 (5 of 6 replicates; controls 0 of 18), from GFTLNSYGIS / VIYSDGRRTFYSDSVK / GESAGTFDS [GP_HC].
Read-out 0.26 (6 of 6 replicates; controls 0 of 18), from GFDLNDYGIS / VIYSDGRRTFYGDSVK / GQAAGTFDS [Ctrl].
Read-out 2.13 (2 of 6 replicates; controls 0 of 18), from GFMLNSYGIS / VIYSDGIRTFYGDFVK / GRAAGTFDS [Ctrl].
Read-out 0.59 (5 of 6 replicates; controls 0 of 18), from GFELNMYGIS / VIYSDGRRTFYGDSVK / GREAGTFDT [GP_Gen].
Read-out nd (0 of 6 replicates; controls 0 of 18), from GFTLNSYGYS / VIYSDGRRTFYDDVVK / CQLAGTFDS [Rand].
Read-out nd (0 of 6 replicates; controls 0 of 18), from GFTLNSYGIS / VIYDDGRRTFYDDSVK / GQLAGTFDS [Rand].
Read-out -0.29 (6 of 6 replicates; controls 0 of 18), from GFDLDEYGIS / VIYADGMRKFYADSVK / GNVAGTFDV [En_Gen].
Read-out 2.63 (1 of 6 replicates; controls 0 of 18), from GFELDEYGIS / VIYADGARTAYVDNVK / GDAGGDFHV [En_Gibbs].

For reference, 5 entries of the list once more:

The variant GFNLDEYGIS / VIYADGQRTFYADSVK / GEHAGTFDT [En_HC] showed -0.69 (6 of 6 replicates; controls 0 of 18).
The variant GFDLDEYGIS / VIYADGLRTAYADSVK / GQNAGTFDV [En_Gen] showed -0.64 (6 of 6 replicates; controls 0 of 18).
The variant GFDLDEYGIS / VIYADGRRTFYADSVK / GQNAGTFDT [En_HC] showed -0.69 (6 of 6 replicates; controls 0 of 18).
The variant GFTLNEYGIS / VIYSDGRRTFYTDTVK / GRTAGTFDS [Rand] showed 1.19 (6 of 6 replicates; controls 1 of 18).
The variant GFDLNSYGIS / VIYSDGKRTFYADSVK / GKAAGTFDS [GPLM_Gibbs] showed -0.14 (6 of 6 replicates; controls 1 of 18).

Source: Li et al. 2023 (doi:10.1038/s41467-023-39022-2), MIT Lincoln Laboratory and A-Alpha Bio; data file from the FLAb repository.